AlphaSeq binding of Ab-14 light chain variants to a spike HR2 peptide

Data: MIT Lincoln Laboratory AlphaSeq set, Engelhart et al. 2022, doi:10.1038/s41597-022-01779-4, as distributed in FLAb.

Target: peptide PDVDLGDISGINAS, taken from heptad repeat 2 (HR2) of SARS-CoV-2 spike.

The variants keep the heavy chain, the linker and the frameworks of Ab-14 (scFv order VH, the linker GGGGSGGGGSGGGGS, VL).
VH: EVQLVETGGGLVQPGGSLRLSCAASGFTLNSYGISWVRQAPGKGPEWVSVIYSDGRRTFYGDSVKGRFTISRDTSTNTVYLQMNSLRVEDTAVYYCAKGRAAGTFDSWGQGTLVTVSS
VL: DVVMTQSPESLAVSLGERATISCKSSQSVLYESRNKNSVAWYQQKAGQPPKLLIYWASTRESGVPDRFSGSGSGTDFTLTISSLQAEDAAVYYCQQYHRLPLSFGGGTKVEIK

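The parent was found by panning a naive human phage display library on the peptide. Library AAYL50 holds single substitutions and randomly drawn double and triple substitutions in the CDRs. The scFvs were displayed on barcoded MATa yeast, the peptide on MATalpha yeast. After mating in shaken culture at 30 °C for 16 h, diploids were selected and their barcode pairs sequenced. Read counts were normalised to the haploid input and turned into Kd by a linear fit to BCL2-family pairs of known affinity, for each replicate. Mating was done three times.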

Each variant is given by its three light chain CDRs, as the data file delimits them; those of the parent are KSSQSVLYESRNKNSVA, WASTRES, QQYHRLPLS.
Scale: log10 of Kd in nM, estimated from mating counts; low values are strong binders.
Where no diploid with the target was found in that replicate, the entry reads "nd": below detection, most likely a poor binder, though not proof of it.

CDR-L1,CDR-L2,CDR-L3,log10 Kd (nM) by replicate,empty controls
KSSQSPGYESRNKNSVA,WASTRES,QQYHRLPVS,3.95 4.77 3.80,7/9 (4.44)
KSSQPVLYESRNKNSTA,WASKRES,QQYHRLPLS,nd nd nd,0/9
KSSQSNLYESRNKNSVA,WASTRES,QQYHAIPLS,2.13 1.88 nd,0/9
KSSQSVLYESRNKNSVA,WLSTRES,QQYHRLHIS,nd nd nd,1/9 (4.76)
KSSQSVLYESRNKESGA,WASTRES,QQYHRLILS,4.75 4.36 4.18,1/9 (4.78)
KSSQSVLYESRIKNSVA,WASTRES,LQYHRLPLS,nd nd nd,0/9
KSSQSVLYESRNKNSVA,CASYRES,QQYHRLPLT,nd 2.06 1.40,0/9
KSSQSVLYESRGVNSVA,WASTRES,QQCHRLPLS,nd nd nd,1/9 (4.03)
KSSQSVLIESRNKNSVA,WLSTEES,QQYHRLPLS,nd nd 3.99,1/9 (3.89)
KSSQSVLYESRNKSSVN,WASTRES,QQYHRLNLS,nd nd nd,3/9 (4.00)
KSSQSVLYESRNKNSVA,WQSTRES,QQYHRLQLS,nd 4.17 nd,1/9 (3.40)
KSSQSVLTESRNKNSVA,WASTRES,QQYHRLPLS,2.68 2.80 5.51,0/9
KSSQSVLYESRNKNSVA,SAFTRPS,QQYHRLPLS,-0.04 0.77 0.15,0/9
KSSQSVLYESRNKGSVI,WASTRDS,QQYHRLPLS,nd nd nd,0/9
KSSLLVLYESRNKNSVA,WASTRES,QQYHRLPLS,nd nd nd,0/9
KSSQSVLYESRNKMSVA,WASTRES,QVYHRLDLS,3.46 nd 3.17,0/9
KSCQSVLYKSRNKNSVA,WASTRES,QQYHQLPLS,4.30 3.27 3.53,7/9 (4.43)
KSSQSYLYESRVKASVA,WASTRES,QQYHRLPLS,nd 3.61 4.31,0/9
KSSQSVLYVSRNKNSVA,WASTREA,QQYHQLPLS,2.71 3.12 2.88,2/9 (4.46)
DSSQSVLYESRNKASVA,WASTRES,QQYHFLPLS,4.11 3.21 3.47,1/9 (4.03)
KSSQSVLYESRNKNSPA,WESTRES,QQYHRLPLF,4.17 3.13 nd,4/9 (4.13)
KSSQSVLYESRNKNSVA,WLSTRED,QQYHRLYLS,nd nd nd,3/9 (3.77)
ASSWSVLYESRNKNSVA,QASTRES,QQYHRLPLS,1.24 1.27 1.34,2/9 (4.63)
KSSQSVLYPSRGKNSVA,WSSTRES,QQYHRLPLS,1.21 1.29 1.17,2/9 (3.92)
KYSQSVLYESRNKNSVA,WASTRES,QEYHRLPLM,0.23 0.47 0.44,2/9 (5.01)
KSSHSVLYESRNKVSVA,WASTREV,QQYHRLPLS,2.99 2.70 3.13,0/9
KSGQSVLYESRNKNSVA,WASHRES,QQVHRLPLS,4.87 3.92 4.86,5/9 (4.36)
KSSQSVKYESRNKNSVA,WASTRNS,QQYHELPLS,2.41 2.29 3.07,0/9
KSSQSNLYEERNKNSVA,WASTRES,QQKHRLPLS,nd 5.44 4.77,1/9 (4.69)
KDSQSVLYESRNKNSTA,WASTRES,QQNHRLPLS,nd nd nd,0/9
KSSQSVLYESRNKNKVA,WASTKES,QQYHDLPLS,nd nd nd,1/9 (3.90)
NSSQSQLYESRNKNSVA,WASTRES,QQYHELPLS,nd nd nd,0/9
KSSQSVLYHSLNKNKVA,WASTRES,QQYHRLPLS,nd 3.32 nd,1/9 (2.73)
KSSQKELYESRSKNSVA,WASTRES,QQYHRLPLS,1.04 1.09 1.50,1/9 (3.64)
KSSQSVLYEQRNKNPVA,WASRRES,QQYHRLPLS,nd 1.79 nd,0/9
WSSQSVLYESSNKNSVA,NASTRES,QQYHRLPLS,0.15 0.34 0.23,6/9 (5.14)
KSSQSVLYESRNKNSVA,WASTREL,QSYHRLPLS,3.90 2.69 nd,0/9

Top 3 of the variants detected in all replicates, tightest first:

CDR-L1,CDR-L2,CDR-L3,log10 Kd (nM) by replicate,empty controls
WSSQSVLYESSNKNSVA,NASTRES,QQYHRLPLS,0.15 0.34 0.23,6/9 (5.14)
KSSQSVLYESRNKNSVA,SAFTRPS,QQYHRLPLS,-0.04 0.77 0.15,0/9
KYSQSVLYESRNKNSVA,WASTRES,QEYHRLPLM,0.23 0.47 0.44,2/9 (5.01)

Three control strains display no target. For library AAYL50, 18% of the pairings with them gave a signal, with a median of 4.19 and one signal in twenty below 2.99, so weak values seen in few replicates may be background. For each scFv, signals with the empty controls are counted beside the result, with their mean in brackets.
In this assay the parent's reference entry averaged 0.65; its copy inside this library read 1.68.